# Experiment: Size, polydispersity index and zeta potential determination (Malvern Zetasizer)
# Assay type: physicochemical
# Conditions: compound encapsulated in zein core-shell particles
# Description: Nanoparticles (2 mg) and micelles (2 mg) were dispersed in 2 ml of purified water and bath sonicated for 1 min. They were then centrifuged at 10000 rpm for 5 min and diluted 50 times with distilled water. About 50 μl of the nanoemulsion was taken and dilated to 1 mL using distilled water. A liposome dispersion was diluted 100 times using purified water and probe sonicated for 1 min using 20% amplitude. The sizes, polydispersity indexes, and zeta potentials, were measured with a Malvern Zetasizer.
# Nanoparticles (2 mg) were dispersed in 1 ml of purified water and probe sonicated for 1 min using 20% amplitude. Subsequently, the sonicated particles were diluted 10 times with distilled water and properties were measured using a Malvern Zetasizer.
# Size, polydispersity index and zeta potential determination: nanoparticles (50 μl), nanoemulsions (squalene) (50 μl) and nanomicelles (2 mg) were dispersed in 2 ml of purified water separately, vortex for 1 min. Further, the size, polydispersity index and zeta potential were measured with a Malvern Zetasizer.
structure (smiles),measurement,value
"O=c1ccc2ccccc2o1 [Coumarin, coumarin]",Particle Size,173 ± 20 nm
